Values quoted from earlier work as cited in patent publication US8598344B2, “CDKI pathway inhibitors and uses thereof” (Senex Biotechnology, priority 2009, dated 2013).

Chains of the proteins cited; added tags and fusions are not shown. Lines headed by an entry give the natural chain unless they say otherwise; changes in a name come on top.
UniProt P49336: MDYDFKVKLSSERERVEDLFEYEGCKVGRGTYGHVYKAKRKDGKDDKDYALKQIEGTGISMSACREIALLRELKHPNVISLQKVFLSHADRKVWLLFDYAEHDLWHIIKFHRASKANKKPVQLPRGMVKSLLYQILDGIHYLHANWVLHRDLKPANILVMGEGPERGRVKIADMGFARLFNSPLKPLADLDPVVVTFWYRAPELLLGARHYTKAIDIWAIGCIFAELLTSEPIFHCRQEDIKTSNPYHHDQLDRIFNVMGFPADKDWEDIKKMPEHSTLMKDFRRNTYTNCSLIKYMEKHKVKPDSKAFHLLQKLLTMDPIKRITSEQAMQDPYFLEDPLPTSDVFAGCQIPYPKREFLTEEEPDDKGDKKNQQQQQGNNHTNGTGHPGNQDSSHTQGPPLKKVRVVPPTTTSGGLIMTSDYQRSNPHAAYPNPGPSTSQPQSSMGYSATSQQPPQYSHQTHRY

Key:
[1] = system: human umbilical vein endothelial cells (HUVECs); details: cited from earlier work
CDK8 = target: T1, CDK8 (Homo sapiens, UniProt P49336); details: cited from earlier work
T1 construct: purchased KinomeScan, a division of Ambit Biosciences

## cortistatin A
[1]; Aoki et al., 2007
  fold differential KB-3-1 vs HUVEC: 3,900 fold
[1]
  fold higher for other human cells than for HUVECs: > 3,000 fold
CDK8; 10 μM, data from Cee et al. (2009)
  POC, CDK8: 0.95 POC
CDK8; Cee et al. (2009)
  Kd: 17 nM
